{
  "sequences": {"note": "Chains of the proteins cited; added tags and fusions are not shown. Lines headed by an entry give the natural chain unless they say otherwise; changes in a name come on top.", "UniProt P08913, whole entry": "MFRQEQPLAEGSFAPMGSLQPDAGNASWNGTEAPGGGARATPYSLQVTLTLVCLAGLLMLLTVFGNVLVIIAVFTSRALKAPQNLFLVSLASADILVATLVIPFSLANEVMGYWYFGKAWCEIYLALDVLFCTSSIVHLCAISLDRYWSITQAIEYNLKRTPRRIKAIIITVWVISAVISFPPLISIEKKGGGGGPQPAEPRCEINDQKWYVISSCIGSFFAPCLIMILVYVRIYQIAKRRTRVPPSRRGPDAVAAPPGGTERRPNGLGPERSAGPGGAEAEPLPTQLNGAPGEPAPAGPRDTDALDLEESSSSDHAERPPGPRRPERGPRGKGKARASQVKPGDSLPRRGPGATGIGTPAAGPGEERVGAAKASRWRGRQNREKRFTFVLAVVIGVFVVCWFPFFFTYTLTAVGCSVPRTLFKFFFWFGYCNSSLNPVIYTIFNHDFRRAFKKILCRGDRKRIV", "UniProt Q01959, whole entry": "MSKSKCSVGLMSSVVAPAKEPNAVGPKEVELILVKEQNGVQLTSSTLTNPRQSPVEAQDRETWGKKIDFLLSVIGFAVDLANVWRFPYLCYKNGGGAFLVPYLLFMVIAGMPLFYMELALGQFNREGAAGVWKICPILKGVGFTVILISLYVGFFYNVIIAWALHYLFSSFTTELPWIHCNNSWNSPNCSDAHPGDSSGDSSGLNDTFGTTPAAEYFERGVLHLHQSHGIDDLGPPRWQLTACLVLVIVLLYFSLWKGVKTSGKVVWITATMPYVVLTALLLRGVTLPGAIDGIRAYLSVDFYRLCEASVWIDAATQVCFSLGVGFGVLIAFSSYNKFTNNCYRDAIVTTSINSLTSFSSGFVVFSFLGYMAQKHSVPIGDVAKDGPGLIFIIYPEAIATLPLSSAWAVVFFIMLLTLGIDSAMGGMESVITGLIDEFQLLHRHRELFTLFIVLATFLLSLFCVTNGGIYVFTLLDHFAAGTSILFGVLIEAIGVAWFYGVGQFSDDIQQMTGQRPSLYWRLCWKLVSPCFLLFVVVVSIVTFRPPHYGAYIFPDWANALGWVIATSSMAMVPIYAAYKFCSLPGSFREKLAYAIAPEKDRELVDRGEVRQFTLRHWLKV", "UniProt P31645, whole entry, looked up": "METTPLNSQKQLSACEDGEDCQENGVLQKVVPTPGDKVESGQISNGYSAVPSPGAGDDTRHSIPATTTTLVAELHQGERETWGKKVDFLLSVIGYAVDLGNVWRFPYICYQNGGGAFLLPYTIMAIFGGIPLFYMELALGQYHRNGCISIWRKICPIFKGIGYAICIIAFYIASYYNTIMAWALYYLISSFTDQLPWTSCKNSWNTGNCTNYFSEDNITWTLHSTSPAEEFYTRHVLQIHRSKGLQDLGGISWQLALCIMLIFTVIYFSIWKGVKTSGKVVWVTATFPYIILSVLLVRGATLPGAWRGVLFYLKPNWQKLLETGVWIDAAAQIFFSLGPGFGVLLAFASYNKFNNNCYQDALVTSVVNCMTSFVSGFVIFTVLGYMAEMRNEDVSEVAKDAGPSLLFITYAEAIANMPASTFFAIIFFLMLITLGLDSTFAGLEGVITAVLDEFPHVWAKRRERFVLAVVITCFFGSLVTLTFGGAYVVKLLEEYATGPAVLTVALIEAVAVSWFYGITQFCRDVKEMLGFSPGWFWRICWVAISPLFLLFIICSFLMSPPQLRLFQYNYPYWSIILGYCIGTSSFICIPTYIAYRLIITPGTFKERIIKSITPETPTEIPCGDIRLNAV", "UniProt P35348": "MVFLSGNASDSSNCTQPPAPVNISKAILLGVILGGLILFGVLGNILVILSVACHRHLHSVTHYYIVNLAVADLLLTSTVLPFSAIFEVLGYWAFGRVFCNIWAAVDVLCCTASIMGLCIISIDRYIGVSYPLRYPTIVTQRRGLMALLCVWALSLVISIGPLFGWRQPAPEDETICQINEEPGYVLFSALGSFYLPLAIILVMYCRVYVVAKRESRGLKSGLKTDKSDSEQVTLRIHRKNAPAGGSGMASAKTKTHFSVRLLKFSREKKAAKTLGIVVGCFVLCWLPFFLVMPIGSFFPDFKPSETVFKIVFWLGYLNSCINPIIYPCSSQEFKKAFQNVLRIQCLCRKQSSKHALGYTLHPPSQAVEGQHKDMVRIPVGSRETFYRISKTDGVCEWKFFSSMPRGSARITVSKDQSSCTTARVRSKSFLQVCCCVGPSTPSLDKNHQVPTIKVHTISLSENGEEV", "UniProt P08908, whole entry": "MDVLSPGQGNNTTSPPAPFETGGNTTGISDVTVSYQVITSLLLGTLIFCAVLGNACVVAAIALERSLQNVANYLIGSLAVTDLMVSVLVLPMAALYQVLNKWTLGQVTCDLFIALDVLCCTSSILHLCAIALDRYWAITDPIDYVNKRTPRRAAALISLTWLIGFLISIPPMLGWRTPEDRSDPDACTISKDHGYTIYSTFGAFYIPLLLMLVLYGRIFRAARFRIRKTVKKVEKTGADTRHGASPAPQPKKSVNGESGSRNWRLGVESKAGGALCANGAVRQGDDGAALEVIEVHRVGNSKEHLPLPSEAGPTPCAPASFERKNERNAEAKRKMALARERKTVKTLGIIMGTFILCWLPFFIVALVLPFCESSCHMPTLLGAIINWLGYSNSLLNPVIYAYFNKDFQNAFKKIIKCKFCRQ", "UniProt Q8TCU5": "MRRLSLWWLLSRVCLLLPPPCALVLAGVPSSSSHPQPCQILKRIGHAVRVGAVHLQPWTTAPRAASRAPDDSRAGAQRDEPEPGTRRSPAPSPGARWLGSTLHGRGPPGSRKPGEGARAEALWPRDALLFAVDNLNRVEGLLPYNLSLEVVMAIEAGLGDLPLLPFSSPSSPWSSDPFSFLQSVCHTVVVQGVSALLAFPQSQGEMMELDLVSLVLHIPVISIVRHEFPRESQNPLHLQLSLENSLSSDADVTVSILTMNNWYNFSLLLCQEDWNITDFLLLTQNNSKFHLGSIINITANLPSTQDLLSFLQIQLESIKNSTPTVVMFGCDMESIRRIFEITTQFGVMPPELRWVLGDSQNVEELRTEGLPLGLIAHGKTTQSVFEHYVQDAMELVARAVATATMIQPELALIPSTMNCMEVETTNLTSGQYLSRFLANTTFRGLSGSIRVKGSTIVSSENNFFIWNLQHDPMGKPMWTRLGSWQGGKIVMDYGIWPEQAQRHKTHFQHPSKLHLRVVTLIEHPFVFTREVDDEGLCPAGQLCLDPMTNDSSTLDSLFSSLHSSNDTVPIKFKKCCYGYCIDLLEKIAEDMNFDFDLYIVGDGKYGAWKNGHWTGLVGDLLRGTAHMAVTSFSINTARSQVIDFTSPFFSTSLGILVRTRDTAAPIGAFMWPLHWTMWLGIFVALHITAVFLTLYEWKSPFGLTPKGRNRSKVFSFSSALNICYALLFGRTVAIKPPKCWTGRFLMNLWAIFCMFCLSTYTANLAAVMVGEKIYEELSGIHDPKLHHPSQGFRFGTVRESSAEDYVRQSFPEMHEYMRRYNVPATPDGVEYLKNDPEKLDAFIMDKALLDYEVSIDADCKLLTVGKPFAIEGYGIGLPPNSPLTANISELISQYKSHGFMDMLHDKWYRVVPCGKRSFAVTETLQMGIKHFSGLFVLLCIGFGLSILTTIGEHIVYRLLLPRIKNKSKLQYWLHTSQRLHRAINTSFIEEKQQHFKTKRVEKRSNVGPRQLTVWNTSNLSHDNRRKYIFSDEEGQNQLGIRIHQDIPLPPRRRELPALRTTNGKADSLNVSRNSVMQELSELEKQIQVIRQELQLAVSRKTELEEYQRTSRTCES", "UniProt P32238, whole entry": "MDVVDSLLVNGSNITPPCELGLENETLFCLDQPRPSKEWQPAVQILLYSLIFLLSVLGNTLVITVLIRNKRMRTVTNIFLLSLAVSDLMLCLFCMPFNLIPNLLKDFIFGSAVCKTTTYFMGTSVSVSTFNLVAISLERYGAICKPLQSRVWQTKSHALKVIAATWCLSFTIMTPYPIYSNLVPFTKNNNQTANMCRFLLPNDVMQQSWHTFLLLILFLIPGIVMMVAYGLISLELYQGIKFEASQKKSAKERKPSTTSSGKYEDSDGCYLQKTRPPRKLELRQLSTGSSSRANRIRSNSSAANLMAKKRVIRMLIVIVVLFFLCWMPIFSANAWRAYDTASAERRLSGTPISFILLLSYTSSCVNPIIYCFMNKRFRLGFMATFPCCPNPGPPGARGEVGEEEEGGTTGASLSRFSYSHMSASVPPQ", "UniProt P35367, whole entry": "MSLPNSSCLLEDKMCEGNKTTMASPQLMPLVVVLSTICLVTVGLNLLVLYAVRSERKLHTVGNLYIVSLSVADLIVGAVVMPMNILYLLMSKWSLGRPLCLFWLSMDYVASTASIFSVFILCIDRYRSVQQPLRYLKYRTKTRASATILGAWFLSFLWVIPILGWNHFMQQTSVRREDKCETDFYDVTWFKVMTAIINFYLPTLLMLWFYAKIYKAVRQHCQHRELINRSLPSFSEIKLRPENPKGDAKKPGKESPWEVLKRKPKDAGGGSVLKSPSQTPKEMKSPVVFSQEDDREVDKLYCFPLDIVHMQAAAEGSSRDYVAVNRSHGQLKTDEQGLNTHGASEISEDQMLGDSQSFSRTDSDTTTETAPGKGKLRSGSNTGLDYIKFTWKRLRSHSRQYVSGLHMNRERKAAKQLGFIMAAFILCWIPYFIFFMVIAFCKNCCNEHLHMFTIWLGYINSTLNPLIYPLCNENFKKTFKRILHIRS", "UniProt P20309, whole entry, looked up": "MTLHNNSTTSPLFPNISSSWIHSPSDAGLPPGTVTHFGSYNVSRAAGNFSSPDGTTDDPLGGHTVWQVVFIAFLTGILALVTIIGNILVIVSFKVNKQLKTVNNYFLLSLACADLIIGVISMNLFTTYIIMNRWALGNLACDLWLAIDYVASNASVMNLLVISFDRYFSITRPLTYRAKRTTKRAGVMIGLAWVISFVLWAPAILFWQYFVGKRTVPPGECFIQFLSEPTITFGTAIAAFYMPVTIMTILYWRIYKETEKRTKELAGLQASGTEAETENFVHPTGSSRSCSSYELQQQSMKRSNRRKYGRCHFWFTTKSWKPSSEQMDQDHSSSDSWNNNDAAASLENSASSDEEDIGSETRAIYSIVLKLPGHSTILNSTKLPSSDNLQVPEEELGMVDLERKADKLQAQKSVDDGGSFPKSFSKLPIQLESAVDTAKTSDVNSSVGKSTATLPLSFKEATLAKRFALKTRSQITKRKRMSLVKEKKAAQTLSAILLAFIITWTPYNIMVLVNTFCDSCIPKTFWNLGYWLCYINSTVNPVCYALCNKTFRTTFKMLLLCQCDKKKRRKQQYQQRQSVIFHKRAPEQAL", "UniProt P23219, whole entry": "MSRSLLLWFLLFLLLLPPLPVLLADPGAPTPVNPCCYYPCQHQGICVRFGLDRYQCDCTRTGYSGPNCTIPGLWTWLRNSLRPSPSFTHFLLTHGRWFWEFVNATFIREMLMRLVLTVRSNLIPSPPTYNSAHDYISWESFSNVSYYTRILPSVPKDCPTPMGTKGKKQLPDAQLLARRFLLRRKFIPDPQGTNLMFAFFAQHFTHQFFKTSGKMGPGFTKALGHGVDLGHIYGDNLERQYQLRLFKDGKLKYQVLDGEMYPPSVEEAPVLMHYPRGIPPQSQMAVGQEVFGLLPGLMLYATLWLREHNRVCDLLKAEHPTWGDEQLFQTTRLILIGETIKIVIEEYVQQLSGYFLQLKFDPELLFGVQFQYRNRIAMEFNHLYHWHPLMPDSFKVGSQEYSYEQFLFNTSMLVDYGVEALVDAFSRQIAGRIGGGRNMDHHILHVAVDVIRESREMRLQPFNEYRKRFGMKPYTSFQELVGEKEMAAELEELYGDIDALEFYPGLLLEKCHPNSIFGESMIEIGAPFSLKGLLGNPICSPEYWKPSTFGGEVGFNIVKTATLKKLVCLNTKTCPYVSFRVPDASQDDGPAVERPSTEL", "UniProt P43681": "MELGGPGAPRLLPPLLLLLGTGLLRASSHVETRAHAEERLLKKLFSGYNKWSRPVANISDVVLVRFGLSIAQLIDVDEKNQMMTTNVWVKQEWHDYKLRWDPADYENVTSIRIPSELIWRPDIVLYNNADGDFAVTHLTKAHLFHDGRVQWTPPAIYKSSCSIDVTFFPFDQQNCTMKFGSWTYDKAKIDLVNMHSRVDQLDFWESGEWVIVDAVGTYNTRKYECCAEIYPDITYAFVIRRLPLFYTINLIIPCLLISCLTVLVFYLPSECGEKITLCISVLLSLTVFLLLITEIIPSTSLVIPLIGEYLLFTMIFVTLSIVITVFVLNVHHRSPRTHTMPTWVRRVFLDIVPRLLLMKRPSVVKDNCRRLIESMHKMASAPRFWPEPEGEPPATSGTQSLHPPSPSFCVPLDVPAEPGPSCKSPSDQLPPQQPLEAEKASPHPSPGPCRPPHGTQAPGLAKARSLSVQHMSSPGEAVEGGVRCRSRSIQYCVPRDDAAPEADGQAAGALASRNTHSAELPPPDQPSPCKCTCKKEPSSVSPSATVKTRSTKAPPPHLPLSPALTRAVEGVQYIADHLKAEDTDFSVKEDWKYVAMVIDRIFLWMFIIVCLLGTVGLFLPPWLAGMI"},
  "source": "ChEMBL document CHEMBL5365501",
  "about": "“Brain-penetrant cyanoindane and cyanotetralin inhibitors of G2019S-LRRK2 kinase activity” (Bioorg Med Chem Lett, 2023)",
  "key": {"[1]": {"target": "5-hydroxytryptamine receptor 1B (Homo sapiens) (UniProt P28222)", "experiment": "Displacement of [3H]GR125743 from human recombinant 5-HT1B receptor assessed as inhibition at 10 uM by scintillation analysis relative to control"}, "[2]": {"target": "Acetylcholinesterase (Homo sapiens) (UniProt P22303)", "experiment": "Inhibition of human recombinant acetylcholinesterase using acetylthiocholine as substrate at 10 uM by spectrophotometric analysis relative to control"}, "[3]": {"target": "Alpha-2A adrenergic receptor (Homo sapiens) (UniProt P08913)", "experiment": "Displacement of radioligand from human recombinant alpha 2A adrenergic receptor assessed as inhibition at 10 uM by scintillation analysis relative to control"}, "[4]": {"target": "Sodium-dependent dopamine transporter (Homo sapiens) (UniProt Q01959)", "experiment": "Displacement of radioligand from human recombinant DAT transporter assessed as inhibition at 10 uM by scintillation analysis relative to control"}, "[5]": {"target": "5-hydroxytryptamine receptor 2B (Homo sapiens) (UniProt P41595)", "experiment": "Displacement of radioligand from human recombinant 5-HT2B receptor assessed as inhibition at 10 uM by scintillation analysis relative to control"}, "[6]": {"target": "Adenosine receptor A2a (Homo sapiens) (UniProt P29274)", "experiment": "Displacement of [3H]CGS-21680 from human recombinant A2A receptor assessed as inhibition at 10 uM by scintillation analysis relative to control"}, "[7]": {"target": "Sodium-dependent serotonin transporter (Homo sapiens) (UniProt P31645)", "experiment": "Inhibition of human 5-HT transporter at 10 uM by antagonist radioligand based assay relative to control"}, "[8]": {"target": "Delta-type opioid receptor (Homo sapiens) (UniProt P41143)", "experiment": "Inhibition of human DOP at 10 uM by agonist radioligand based assay relative to control"}, "[9]": {"target": "cGMP-inhibited 3',5'-cyclic phosphodiesterase 3A (Homo sapiens) (UniProt Q14432)", "experiment": "Inhibition of human recombinant PDE3A using FAM-cAMP as substrate at 10 uM by spectrofluorimetric analysis relative to control"}, "[10]": {"target": "3',5'-cyclic-AMP phosphodiesterase 4D (Homo sapiens) (UniProt Q08499)", "experiment": "Inhibition of human recombinant PDE4D2 using FAM-cAMP as substrate at 10 uM spectrofluorimetric analysis relative to control"}, "[11]": {"target": "Sodium-dependent noradrenaline transporter (Homo sapiens) (UniProt P23975)", "experiment": "Displacement of radioligand human recombinant norepinephrine transporter assessed as inhibition at 10 uM by scintillation analysis relative to control"}, "[12]": {"target": "Glucocorticoid receptor (Homo sapiens) (UniProt P04150)", "experiment": "Displacement of [3H]dexamethasone from human GR receptor assessed as inhibition at 10 uM by scintillation analysis relative to control"}, "[13]": {"target": "Beta-2 adrenergic receptor (Homo sapiens) (UniProt P07550)", "experiment": "Displacement of [3H]CGP-12177 from human recombinant beta 2 adrenergic receptor assessed as inhibition at 10 uM by scintillation analysis relative to control"}, "[14]": {"target": "Kappa-type opioid receptor (Homo sapiens) (UniProt P41145)", "experiment": "Displacement of [3H]U-69593 from human KOP assessed as inhibition at 10 uM in by scintillation analysis relative to control"}, "[15]": {"target": "Alpha-1A adrenergic receptor (Homo sapiens) (UniProt P35348)", "experiment": "Displacement of [3H]Prazosin from human alpha 1A adrenergic receptor assessed as inhibition at 10 uM by scintillation analysis relative to control"}, "[16]": {"target": "Prostaglandin G/H synthase 2 (Homo sapiens) (UniProt P35354)", "experiment": "Inhibition of human COX2 using arachidonic acid and ADHP as substrate at 10 uM by spectrofluorimetric analysis relative to control"}, "[17]": {"target": "Mu-type opioid receptor (Homo sapiens) (UniProt P35372)", "experiment": "Displacement of [3H]DAMGO from human recombinant MOP assessed as inhibition at 10 uM by scintillation analysis relative to control"}, "[18]": {"target": "5-hydroxytryptamine receptor 1A (Homo sapiens) (UniProt P08908)", "experiment": "Displacement of [3H]8-OH-DPAT from human recombinant 5-HT1A receptor assessed as inhibition at 10 uM by scintillation analysis relative to control"}, "[19]": {"target": "5-hydroxytryptamine receptor 2A (Homo sapiens) (UniProt P28223)", "experiment": "Displacement of [125I] (+/-) DOI from human recombinant 5-HT2A assessed as inhibition at 10 uM by scintillation analysis relative to control"}, "[20]": {"target": "Glutamate [NMDA] receptor (Homo sapiens) (UniProt Q05586+Q12879+Q13224+O15399+O60391+Q14957+Q8TCU5)", "experiment": "Inhibition of NMDA receptor (unknown origin) at 10 uM by antagonist radioligand based assay relative to control", "type": "protein-complex assay"}, "[21]": {"target": "Cholecystokinin receptor type A (Homo sapiens) (UniProt P32238)", "experiment": "Displacement of [125I]CCK-8 from human recombinant CCK1 receptor assessed as inhibition at 10 uM by scintillation analysis relative to control"}, "[22]": {"target": "Histamine H1 receptor (Homo sapiens) (UniProt P35367)", "experiment": "Displacement of [3H]pyrilamine from human recombinant histamine H1 receptor assessed as inhibition at 10 uM by scintillation analysis relative to control"}, "[23]": {"target": "Tyrosine-protein kinase Lck (Homo sapiens) (UniProt P06239)", "experiment": "Inhibition of human Lck kinase at 10 uM relative to control"}, "[24]": {"target": "Cannabinoid receptor 2 (Homo sapiens) (UniProt P34972)", "experiment": "Displacement of [3H]WIN 55212-2 from human recombinant CB2 receptor assessed as inhibition at 10 uM by scintillation analysis relative to control"}, "[25]": {"target": "Muscarinic acetylcholine receptor M3 (Homo sapiens) (UniProt P20309)", "experiment": "Displacement of radioligand from human recombinant muscarinic M3 receptor assessed as inhibition at 10 uM by scintillation analysis relative to control"}, "[26]": {"target": "Vasopressin V1a receptor (Homo sapiens) (UniProt P37288)", "experiment": "Displacement of [3H]AVP from human recombinant V1a receptor assessed as inhibition at 10 uM by scintillation analysis relative to control"}, "[27]": {"target": "Prostaglandin G/H synthase 1 (Homo sapiens) (UniProt P23219)", "experiment": "Inhibition of human recombinant COX1 using arachidonic acid and ADHP as substrate at 10 uM by spectrofluorimetric analysis relative to control"}, "[28]": {"target": "Endothelin-1 receptor (Homo sapiens) (UniProt P25101)", "experiment": "Displacement of [125I]endothelin-1 from human recombinant ETA receptor assessed as inhibition at 10 uM by scintillation analysis relative to control"}, "[29]": {"target": "Neuronal acetylcholine receptor; alpha4/beta2 (Homo sapiens) (UniProt P17787+P43681)", "experiment": "Inhibition of human neuronal alpha4beta2 receptor at 10 uM by agonist radioligand based assay relative to control", "type": "protein-complex assay"}, "[30]": {"target": "Histamine H2 receptor (Homo sapiens) (UniProt P25021)", "experiment": "Displacement of [125I]APT from human recombinant histamine H2 receptor assessed as inhibition at 10 uM by scintillation analysis relative to control"}},
  "data": [
    {"molecule": "N#Cc1ccc2c(c1)CC[C@@H]2Nc1ccc2[nH]nc(-c3cnoc3)c2c1", "values": [
      {"measurement": "inhibition (INH)", "setting": "[1]", "value": -7.2, "unit": "E^-1%"},
      {"measurement": "inhibition", "setting": "[2]", "value": -7.66, "unit": "%"},
      {"measurement": "inhibition", "setting": "[3]", "value": 2.3, "unit": "%"},
      {"measurement": "inhibition", "setting": "[4]", "value": 78.1, "unit": "%"},
      {"measurement": "inhibition", "setting": "[5]", "value": 68.8, "unit": "%"},
      {"measurement": "inhibition", "setting": "[6]", "value": 56, "unit": "%"},
      {"measurement": "inhibition", "setting": "[7]", "value": 51, "unit": "%"},
      {"measurement": "inhibition", "setting": "[8]", "value": 48.9, "unit": "%"},
      {"measurement": "inhibition", "setting": "[9]", "value": 37, "unit": "%"},
      {"measurement": "inhibition", "setting": "[10]", "value": 36.6, "unit": "%"},
      {"measurement": "inhibition", "setting": "[11]", "value": 34, "unit": "%"},
      {"measurement": "inhibition", "setting": "[12]", "value": 33.4, "unit": "%"},
      {"measurement": "inhibition", "setting": "[13]", "value": 32.8, "unit": "%"},
      {"measurement": "inhibition", "setting": "[14]", "value": 32.7, "unit": "%"},
      {"measurement": "inhibition", "setting": "[15]", "value": 32, "unit": "%"},
      {"measurement": "inhibition", "setting": "[16]", "value": 31.7, "unit": "%"},
      {"measurement": "inhibition", "setting": "[17]", "value": 26.1, "unit": "%"},
      {"measurement": "inhibition", "setting": "[18]", "value": 19.5, "unit": "%"},
      {"measurement": "inhibition", "setting": "[19]", "value": 17.7, "unit": "%"},
      {"measurement": "inhibition", "setting": "[20]", "value": 14, "unit": "%"},
      {"measurement": "inhibition", "setting": "[21]", "value": 14, "unit": "%"},
      {"measurement": "inhibition", "setting": "[22]", "value": 5.72, "unit": "%"},
      {"measurement": "inhibition", "setting": "[23]", "value": 4.17, "unit": "%"},
      {"measurement": "inhibition", "setting": "[24]", "value": 2.62, "unit": "%"},
      {"measurement": "inhibition", "setting": "[25]", "value": 1.3, "unit": "%"},
      {"measurement": "inhibition", "setting": "[26]", "value": 0.524, "unit": "%"},
      {"measurement": "inhibition", "setting": "[27]", "value": -5.72, "unit": "%"},
      {"measurement": "inhibition", "setting": "[28]", "value": -6.93, "unit": "%"},
      {"measurement": "inhibition", "setting": "[29]", "value": -9.92, "unit": "%"},
      {"measurement": "inhibition (INH)", "setting": "[30]", "value": -1.82, "unit": "E^1%"}
    ]}
  ]
}
